Experimental data as given in paper PMC6702422 (Journal of Pharmaceutical Analysis, 2019).

Sequences of proteins named here, by UniProt entry; tags and fusion partners are left off. Residues count along the entry.
UniProt P02769, 25-607: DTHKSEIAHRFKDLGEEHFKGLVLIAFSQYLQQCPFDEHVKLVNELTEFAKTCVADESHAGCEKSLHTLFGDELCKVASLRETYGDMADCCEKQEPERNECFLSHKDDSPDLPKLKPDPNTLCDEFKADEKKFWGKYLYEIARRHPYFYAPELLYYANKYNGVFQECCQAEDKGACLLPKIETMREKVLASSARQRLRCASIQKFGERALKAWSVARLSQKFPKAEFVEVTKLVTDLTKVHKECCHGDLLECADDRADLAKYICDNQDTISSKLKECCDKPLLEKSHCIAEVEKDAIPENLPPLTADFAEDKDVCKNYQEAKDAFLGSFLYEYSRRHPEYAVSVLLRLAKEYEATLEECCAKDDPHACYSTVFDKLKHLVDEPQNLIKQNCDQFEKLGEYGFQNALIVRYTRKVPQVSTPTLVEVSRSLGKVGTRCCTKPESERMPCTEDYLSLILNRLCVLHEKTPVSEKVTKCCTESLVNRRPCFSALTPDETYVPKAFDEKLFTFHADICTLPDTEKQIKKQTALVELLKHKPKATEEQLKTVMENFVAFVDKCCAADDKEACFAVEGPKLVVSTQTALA

Columns and labels:
[1] = target: T1, bovine serum albumin (BSA) (Bos taurus, UniProt P02769); experiment: Effect of metal ions Cu; details: binding constant of RPG-BSA system, 298 K
[2] = target: T1, bovine serum albumin (BSA); experiment: Differential pulse voltammetry of RPG in the presence of BSA; assay type: binding
[3] = target: T1, bovine serum albumin (BSA); experiment: Fluorescence resonance energy transfer; assay type: binding; details: [BSA] = [RPG] = 1.67 μM
[4] = tested on: human serum albumin (HSA); details: cited from earlier work
[5] = target: T1, bovine serum albumin (BSA); experiment: Time-resolved fluorescence lifetime of BSA in the presence of RPG; assay type: binding; details: BSA 1.67 μM
[6] = target: T1, bovine serum albumin (BSA); experiment: Steady-state fluorescence quenching of BSA by RPG; assay type: binding; details: for Stern-Volmer quenching constant Ksv: phosphate buffer pH 7.4; for Kd: binding constant K
[7] = target: T1, bovine serum albumin (BSA); experiment: Site probe displacement; assay type: binding; details: 298 K

Kd ([1]; in the presence of Cu(II) (1.67 μM)): 11.2 µM
Kd ([1]; in the presence of Zn(II) (1.67 μM)): 402 µM
Kd [2]: 56.5 µM
binding ratio m ([2]; DPV, BR buffer pH 7.4, room temperature): 1.1
critical distance Ro [3]: 1.01 nm
distance between BSA and RPG (r) [3]: 1.48 nm
efficiency of energy transfer E [3]: 0.1248
overlap integral J [3]: 0.2906 × 10^−15 cm^3 L mol^−1
<J> (average life time of BSA) ([5]; RPG 1.67 μM): 4.70 ns
α1 (pre-exponential factor) ([5]; RPG 1.67 μM): 6.64
α2 (pre-exponential factor) ([5]; RPG 1.67 μM): 14.6
τ1 (decay time of BSA) ([5]; RPG 1.67 μM): 1.5
τ1 (second column; decay time of BSA) ([5]; RPG 1.67 μM): 6.16
<J> (average life time of BSA) ([5]; RPG 3.33 μM): 3.87 ns
α1 (pre-exponential factor) ([5]; RPG 3.33 μM): 10.9
α2 (pre-exponential factor) ([5]; RPG 3.33 μM): 14.9
τ1 (decay time of BSA) ([5]; RPG 3.33 μM): 1.07
τ1 (second column; decay time of BSA) ([5]; RPG 3.33 μM): 5.92
<J> (average life time of BSA) ([5]; RPG 5.00 μM): 3.24 ns
α1 (pre-exponential factor) ([5]; RPG 5.00 μM): 16
α2 (pre-exponential factor) ([5]; RPG 5.00 μM): 14.8
τ1 (decay time of BSA) ([5]; RPG 5.00 μM): 0.957
τ1 (second column; decay time of BSA) ([5]; RPG 5.00 μM): 5.72
<J> (average life time of BSA) ([5]; RPG 6.67 μM): 2.77 ns
α1 (pre-exponential factor) ([5]; RPG 6.67 μM): 21.7
α2 (pre-exponential factor) ([5]; RPG 6.67 μM): 14.4
τ1 (decay time of BSA) ([5]; RPG 6.67 μM): 0.899
τ1 (second column; decay time of BSA) ([5]; RPG 6.67 μM): 5.59
<J> (average life time of BSA) ([5]; RPG 8.33 μM): 2.37 ns
α1 (pre-exponential factor) ([5]; RPG 8.33 μM): 27.6
α2 (pre-exponential factor) ([5]; RPG 8.33 μM): 14.4
τ1 (decay time of BSA) ([5]; RPG 8.33 μM): 0.834
τ1 (second column; decay time of BSA) ([5]; RPG 8.33 μM): 5.34
<J> (average life time of BSA) ([5]; RPG 11.7 μM): 2.03 ns
α1 (pre-exponential factor) ([5]; RPG 11.7 μM): 34.2
α2 (pre-exponential factor) ([5]; RPG 11.7 μM): 14.7
τ1 (decay time of BSA) ([5]; RPG 11.7 μM): 0.754
τ1 (second column; decay time of BSA) ([5]; RPG 11.7 μM): 5.03
number of binding sites n per BSA molecule ([6]; 298, 303 and 308 K): ~1
number of binding sites n ([6]; 298 K): 1.01
ΔG^o ([6]; 298 K): -6.05 ± 0.098 kcal/mol
number of binding sites n ([6]; 303 K): 1.05
ΔG^o ([6]; 303 K): -6.74 ± 0.117 kcal/mol
Stern-Volmer quenching constant Ksv ([6]; 303 K): (4.45 ± 0.08) × 10^4 L/mol/s
number of binding sites n ([6]; 308 K): 1.04
ΔG^o ([6]; 308 K): -7.24 ± 0.124 kcal/mol
Stern-Volmer quenching constant Ksv ([6]; 308 K): (5.68 ± 0.12) × 10^4 L/mol/s
quenching mechanism ([6]; Stern-Volmer analysis at 298, 303, 308 K): dynamic quenching mechanism
Kd ([6]; 298 K, pH 7.4, no site probe or metal ion): 36.2 µM
Kd ([6]; 303 K, pH 7.4): 13.3 µM
Kd ([6]; 308 K, pH 7.4): 7.19 µM
nature of binding force ([6]; from signs of ΔH° and ΔS°): hydrophobic forces
ΔH^o ([6]; van't Hoff plot, 298-308 K): 29.57 ± 0.507 kcal/mol
ΔS^o ([6]; van't Hoff plot, 298-308 K): 500.5 ± 6.95 J/K/mol
binding site on BSA [7]: site II of subdomain IIIA
Structure (SMILES): CCOc1cc(CC(=O)NC(CC(C)C)c2ccccc2N2CCCCC2)ccc1C(=O)O (centres unmarked) [RPG, 2-Ethoxy-4-(2-((3-methyl-1-(2-(1-piperidinyl)phenyl)butyl)amino)-2-oxoethyl)benzoic acid]
binding constant of RPG-HSA (order of magnitude) [4]: ~10^5 M^−1
